The results in this text go back to ChEMBL document CHEMBL1128460, “Design, synthesis, and structure-activity relationships of a new series of alpha-adrenergic agonists: spiro[(1,3-diazacyclopent-1-ene)-5,2'-(1',2',3',4'- tetrahydronaphthalene)]” (J Med Chem, 1995).

A short description of experiment [1]: Ratio of C20 obtained in the absence or presence of [C20 ( 0.1 mg of prazosin ) / C20 (control)]. Type of experiment: functional. Put shortly:
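Pithed rats pretreated with tertatolol (100 mg/kg), then 10 min later with prazosin (100 µg/kg). Cumulative iv agonist doses given another 10 min later at 20 s intervals. Arterial pressure recorded, C20 (dose giving +20 mmHg) determined. Ratio calculated as C20(prazosin)/C20(control); 3–6 determinations.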

Experiment [2] is described as follows: Ratio of C20 obtained in the absence or presence of [C20 (1 mg of yohimbine.) / C20 (control)]. In kind it is functional. An outline of the steps:
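Pithed rat arterial pressure assay with tertatolol (100 mg/kg) pretreatment, then yohimbine (1 mg/kg) 10 min later. Cumulative iv agonist doses given at 20 s intervals after a further 10 min, C20 (+20 mmHg dose) obtained. Ratio expressed as C20(yohimbine)/C20(control); 3–6 determinations.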

With `Cc1ccc2c(c1)CC1(CC2)CN=CN1` (configuration not stated), the Ratio worked out at 6.1 in experiment [1] and 7.9 in experiment [2].
